Measurements as given in patent US7759499B2, “Compounds as inhibitors of hepatitis C virus NS3 serine protease” (Schering Corporation, priority 2004, dated 2010).

By UniProt entry, the sequences of proteins in these tests, tags left out. Residues count along the entry.
UniProt P27958, 1027-1657: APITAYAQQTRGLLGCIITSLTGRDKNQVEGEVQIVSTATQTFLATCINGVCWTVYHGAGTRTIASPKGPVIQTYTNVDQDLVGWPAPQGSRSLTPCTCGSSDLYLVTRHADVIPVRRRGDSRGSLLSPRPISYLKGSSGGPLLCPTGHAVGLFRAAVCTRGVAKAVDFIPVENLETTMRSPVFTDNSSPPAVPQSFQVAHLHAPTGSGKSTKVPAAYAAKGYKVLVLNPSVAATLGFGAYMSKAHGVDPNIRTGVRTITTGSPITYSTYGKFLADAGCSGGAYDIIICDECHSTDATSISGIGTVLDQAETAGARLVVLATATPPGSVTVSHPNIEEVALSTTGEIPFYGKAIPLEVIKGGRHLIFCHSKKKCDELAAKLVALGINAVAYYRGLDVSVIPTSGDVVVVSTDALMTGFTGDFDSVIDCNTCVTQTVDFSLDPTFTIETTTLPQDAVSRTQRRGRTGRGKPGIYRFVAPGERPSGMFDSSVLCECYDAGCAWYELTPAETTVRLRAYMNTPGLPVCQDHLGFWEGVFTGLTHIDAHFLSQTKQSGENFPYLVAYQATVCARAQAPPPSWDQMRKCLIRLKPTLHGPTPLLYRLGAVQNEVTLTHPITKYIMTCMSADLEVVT
UniProt P27958, 1658-1711: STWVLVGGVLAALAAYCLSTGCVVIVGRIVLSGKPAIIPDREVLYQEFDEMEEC

Biological target: Recombinant heterodimeric HCV NS3/NS4A protease (strain 1a) (Hepatitis C virus genotype 1a, UniProt P27958)
Assay: Spectrophotometric assay for HCV protease inhibitory activity
Assay type: biochemical
Conditions: Table 1, range

With C=CCNC(=O)C(=O)C(CC1CCC1)NC(=O)[C@@H]1[C@@H]2[C@H](CN1C(=O)[C@@H](NC(=O)N[C@H](CN(C)S(=O)(=O)N(C)C)C(C)(C)C)C(C)(C)C)C2(C)C (some centres unmarked) [Compound 10001] as the molecule, how does the Ki read?
The Ki was ≤ 75 nM.

With C=CCNC(=O)C(=O)C(CCC)NC(=O)[C@@H]1[C@@H]2[C@H](CN1C(=O)[C@@H](NC(=O)N[C@H](CN(C)S(=O)(=O)N(C)C)C(C)(C)C)C1CCCCC1)C2(C)C (some centres unmarked) [Compound 10002] as the molecule, how does the Ki read?
Its Ki is ≤ 75 nM.

How did the Ki turn out when C=CCNC(=O)C(=O)C(CCCC)NC(=O)[C@@H]1[C@@H]2[C@H](CN1C(=O)[C@@H](NC(=O)N[C@H](CN(C)S(=O)(=O)N(C)C)C(C)(C)C)C(C)(C)C)C2(C)C (some centres unmarked) [Compound 10003] was run?
Its Ki is ≤ 75 nM.

For CC(C)(C)[C@H](NC(=O)N[C@H](CNS(=O)(=O)N1CCCCC1)C(C)(C)C)C(=O)N1C[C@H]2[C@@H]([C@H]1C(=O)NC(CC1CC1)C(=O)C(N)=O)C2(C)C (some centres unmarked) [Compound 10004], which Ki is on record?
The Ki was ≤ 75 nM.

Which Ki does the source give for C=CCNC(=O)C(=O)C(CCCC)NC(=O)[C@@H]1[C@@H]2[C@H](CN1C(=O)[C@@H](NC(=O)N[C@H](CN(C)S(=O)(=O)N1CCCCC1)C(C)(C)C)C(C)(C)C)C2(C)C (some centres unmarked) [Compound 10005] here?
Its Ki is ≤ 75 nM.

Which Ki does the source give for C=CCNC(=O)C(=O)C(CCCC)NC(=O)[C@@H]1[C@@H]2[C@H](CN1C(=O)[C@@H](NC(=O)N[C@H](CNS(=O)(=O)N(C)C)C(C)C)C(C)(C)C)C2(C)C (some centres unmarked) [Compound 10006] here?
Its Ki is 75 to 250 nM.

With C#CCCC(NC(=O)[C@@H]1[C@@H]2[C@H](CN1C(=O)[C@@H](NC(=O)N[C@H](CN(C)S(=O)(=O)N(C)C)C(C)(C)C)C(C)(C)C)C2(C)C)C(=O)C(=O)NCC=C (some centres unmarked) [Compound 10007] as the molecule, how does the Ki read?
The Ki was ≤ 75 nM.

CNC(=O)C(=O)C(CCC(F)(F)F)NC(=O)[C@@H]1[C@@H]2[C@H](CN1C(=O)[C@@H](NC(=O)N[C@H](CN(C)S(=O)(=O)N(C)C)C(C)(C)C)C(C)(C)C)C2(C)C (some centres unmarked) [Compound 10008] was tested. Which Ki did it give?
Its Ki is ≤ 75 nM.

With C=CCNC(=O)C(=O)C(CCCC)NC(=O)[C@@H]1[C@@H]2[C@H](CN1C(=O)[C@@H](NC(=O)N[C@H](CNS(=O)(=O)N(C)C)C(C)C)C(C)(C)C)C2(C)C (some centres unmarked) [Compound 10009] as the molecule, how does the Ki read?
Its Ki is 75 to 250 nM.

For C=CCNC(=O)C(=O)C(CCC)NC(=O)[C@@H]1[C@@H]2[C@H](CN1C(=O)[C@@H](NC(=O)N[C@H](CN(C)S(=O)(=O)N(C)C)C(C)C)C(C)(C)C)C2(C)C (some centres unmarked) [Compound 10010], which Ki is on record?
Its Ki is ≤ 75 nM.

With C=CCNC(=O)C(=O)[C@@H](CCC)NC(=O)[C@@H]1[C@@H]2[C@H](CN1C(=O)[C@@H](NC(=O)N[C@H](CN(C)S(=O)(=O)N(C)C)C(C)C)C1CCCCC1)C2(C)C [Compound 10011] as the molecule, how does the Ki read?
Its Ki is ≤ 75 nM.

How did the Ki turn out when CCNC(=O)C(=O)[C@@H](CCC(F)(F)F)NC(=O)[C@@H]1[C@@H]2[C@H](CN1C(=O)[C@@H](NC(=O)N[C@H](CN(C)S(=O)(=O)N(C)C)C(C)(C)C)C(C)(C)C)C2(C)C [Compound 10012] was run?
Its Ki is ≤ 75 nM.

With C=CCNC(=O)C(=O)C(CC1CC1)NC(=O)[C@@H]1[C@@H]2[C@H](CN1C(=O)[C@@H](NC(=O)N[C@H](CN(C)S(=O)(=O)N(C)C)C(C)(C)C)C(C)(C)C)C2(C)C (some centres unmarked) [Compound 10013] as the molecule, how does the Ki read?
The Ki was ≤ 75 nM.

How did the Ki turn out when CN(C)S(=O)(=O)N(C)C[C@@H](NC(=O)N[C@H](C(=O)N1C[C@H]2[C@@H]([C@H]1C(=O)NC(CC1CCC1)C(=O)C(N)=O)C2(C)C)C(C)(C)C)C(C)(C)C (some centres unmarked) [Compound 10014] was run?
The Ki was ≤ 75 nM.

How did the Ki turn out when C=CCNC(=O)C(=O)C(CCC)NC(=O)[C@@H]1[C@@H]2[C@H](CN1C(=O)[C@@H](NC(=O)N[C@H](CN(C)S(=O)(=O)N1CCCCC1)C(C)(C)C)C(C)(C)C)C2(C)C (some centres unmarked) [Compound 10016] was run?
The Ki was ≤ 75 nM.

For C=CCNC(=O)C(=O)C(CCCC)NC(=O)[C@@H]1[C@@H]2[C@H](CN1C(=O)[C@@H](NC(=O)N[C@H](CNS(=O)(=O)N(C)C)C(C)C)C(C)(C)C)C2(C)C (some centres unmarked) [Compound 10017], which Ki is on record?
The Ki was ≤ 75 nM.

Which Ki does the source give for CN(C)S(=O)(=O)NC[C@@H](NC(=O)N[C@H](C(=O)N1C[C@H]2[C@@H]([C@H]1C(=O)NC(CC1CCC1)C(=O)C(N)=O)C2(C)C)C(C)(C)C)C(C)(C)C (some centres unmarked) [Compound 10018] here?
Its Ki is 75 to 250 nM.

For C=CCNC(=O)C(=O)C(CCC)NC(=O)[C@@H]1[C@@H]2[C@H](CN1C(=O)[C@@H](NC(=O)N[C@H](CNS(=O)(=O)NC(=O)OCc1ccccc1)C(C)(C)C)C(C)(C)C)C2(C)C (some centres unmarked) [Compound 10019], which Ki is on record?
Its Ki is ≤ 75 nM.

Which Ki does the source give for CC(C)(C)[C@H](NC(=O)N[C@H](CNS(=O)(=O)N1CCC1)C(C)(C)C)C(=O)N1C[C@H]2[C@@H]([C@H]1C(=O)NC(CC1CC1)C(=O)C(N)=O)C2(C)C (some centres unmarked) [Compound 10020] here?
Its Ki is ≤ 75 nM.

How did the Ki turn out when CN(C)S(=O)(=O)N(C)C[C@@H](NC(=O)N[C@H](C(=O)N1C[C@H]2[C@@H]([C@H]1C(=O)N[C@H](CC1CC1)C(=O)C(N)=O)C2(C)C)C(C)(C)C)C(C)(C)C [Compound 10021] was run?
The Ki was ≤ 75 nM.

How did the Ki turn out when CN(C[C@@H](NC(=O)N[C@H](C(=O)N1C[C@H]2[C@@H]([C@H]1C(=O)NC(CC1CC1)C(=O)C(N)=O)C2(C)C)C(C)(C)C)C(C)(C)C)S(=O)(=O)NCCCCl (some centres unmarked) [Compound 10022] was run?
The Ki was ≤ 75 nM.

C=CCNC(=O)C(=O)C(CCC)NC(=O)[C@@H]1[C@@H]2[C@H](CN1C(=O)[C@@H](NC(=O)N[C@H](CN(C)S(=O)(=O)NCCCCl)C(C)(C)C)C(C)(C)C)C2(C)C (some centres unmarked) [Compound 10023] was tested. Which Ki did it give?
Its Ki is ≤ 75 nM.

C=CCNC(=O)C(=O)[C@@H](CCC)NC(=O)[C@@H]1[C@@H]2[C@H](CN1C(=O)[C@@H](NC(=O)N[C@H](CN(C)S(=O)(=O)N(C)C(=O)OCc1ccccc1)C(C)(C)C)C(C)(C)C)C2(C)C [Compound 10024] was tested. Which Ki did it give?
The Ki was ≤ 75 nM.

How did the Ki turn out when C=CCNC(=O)C(=O)[C@@H](CCC)NC(=O)[C@@H]1[C@@H]2[C@H](CN1C(=O)[C@@H](NC(=O)N[C@H](CN(C)S(=O)(=O)N(C)C)C1CCCCC1)C1CCCCC1)C2(C)C [Compound 10025] was run?
The Ki was ≤ 75 nM.

CN(C[C@@H](NC(=O)N[C@H](C(=O)N1C[C@H]2[C@@H]([C@H]1C(=O)NC(CC1CC1)C(=O)C(N)=O)C2(C)C)C(C)(C)C)C(C)(C)C)S(=O)(=O)N(C)C(=O)OCc1ccccc1 (some centres unmarked) [Compound 10026] was tested. Which Ki did it give?
Its Ki is ≤ 75 nM.

Which Ki does the source give for CN(C)S(=O)(=O)N(C)C[C@@H](NC(=O)N[C@H](C(=O)N1C[C@H]2[C@@H]([C@H]1C(=O)NC(CC1CC1)C(=O)C(N)=O)C2(C)C)C(C)(C)C)C1CCCCC1 (some centres unmarked) [Compound 10027] here?
The Ki was ≤ 75 nM.

How did the Ki turn out when CC(C)[C@@H](CN(C)S(=O)(=O)N(C)C)NC(=O)N[C@H](C(=O)N1C[C@H]2[C@@H]([C@H]1C(=O)NC(CC1CC1)C(=O)C(N)=O)C2(C)C)C(C)(C)C (some centres unmarked) [Compound 10028] was run?
Its Ki is ≤ 75 nM.

With CN(C)S(=O)(=O)N(C)C[C@@H](NC(=O)N[C@H](C(=O)N1C[C@H]2[C@@H]([C@H]1C(=O)NC(CC1CCC1)C(=O)C(N)=O)C2(C)C)C(C)(C)C)C1CCCCC1 (some centres unmarked) [Compound 10030] as the molecule, how does the Ki read?
The Ki was ≤ 75 nM.

Which Ki does the source give for CC(C)[C@@H](CN(C)S(=O)(=O)N(C)C)NC(=O)N[C@H](C(=O)N1C[C@H]2[C@@H]([C@H]1C(=O)NC(CC1CCC1)C(=O)C(N)=O)C2(C)C)C(C)(C)C (some centres unmarked) [Compound 10031] here?
The Ki was ≤ 75 nM.

How did the Ki turn out when CN(C[C@@H](NC(=O)N[C@H](C(=O)N1C[C@H]2[C@@H]([C@H]1C(=O)NC(CC1CCC1)C(=O)C(N)=O)C2(C)C)C(C)(C)C)C(C)(C)C)S(=O)(=O)N(C)C(=O)OCc1ccccc1 (some centres unmarked) [Compound 10032] was run?
Its Ki is ≤ 75 nM.

C=CCNC(=O)C(=O)C(CCC(F)(F)F)NC(=O)[C@@H]1[C@@H]2[C@H](CN1C(=O)[C@@H](NC(=O)N[C@H](CN(C)S(=O)(=O)N(C)C)C(C)(C)C)C(C)(C)C)C2(C)C (some centres unmarked) [Compound 10033] was tested. Which Ki did it give?
The Ki was ≤ 75 nM.

With CN(C[C@@H](NC(=O)N[C@H](C(=O)N1C[C@H]2[C@@H]([C@H]1C(=O)NC(CC1CC1)C(=O)C(N)=O)C2(C)C)C(C)(C)C)C(C)(C)C)S(=O)(=O)N1CCCCC1 (some centres unmarked) [Compound 10034] as the molecule, how does the Ki read?
Its Ki is ≤ 75 nM.
